Assay results: article PMC3962266 (Journal of medicinal chemistry, 2013)

Test system: human platelet-rich plasma
Assay: Platelet aggregation assay
Format: cell-based
Details: 3 μM, collagen stimulation

`CCCCNc1ncc(C(=O)NCc2ccc(-n3ccnc3)cc2)c(N[C@H]2CC[C@H](O)CC2)n1` [Compound 23] was tested, and the “ATP release (platelet activation and degranulation)” value was “decreased to a similar extent”.
